Data reported in patent publication US9951035B2 (dated 2018).

Sequences of proteins named here, by UniProt entry; tags and fusion partners are left off. Residues count along the entry.
UniProt P14780, 107-444: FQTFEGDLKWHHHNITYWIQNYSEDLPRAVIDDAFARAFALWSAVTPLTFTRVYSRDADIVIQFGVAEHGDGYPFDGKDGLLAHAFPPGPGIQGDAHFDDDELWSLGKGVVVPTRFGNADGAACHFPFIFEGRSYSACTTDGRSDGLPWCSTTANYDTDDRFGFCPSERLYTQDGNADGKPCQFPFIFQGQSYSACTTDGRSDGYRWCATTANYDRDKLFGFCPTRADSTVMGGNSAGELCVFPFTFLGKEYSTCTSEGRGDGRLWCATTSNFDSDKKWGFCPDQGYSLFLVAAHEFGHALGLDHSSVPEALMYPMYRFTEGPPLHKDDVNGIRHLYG
UniProt P08253, 110-660: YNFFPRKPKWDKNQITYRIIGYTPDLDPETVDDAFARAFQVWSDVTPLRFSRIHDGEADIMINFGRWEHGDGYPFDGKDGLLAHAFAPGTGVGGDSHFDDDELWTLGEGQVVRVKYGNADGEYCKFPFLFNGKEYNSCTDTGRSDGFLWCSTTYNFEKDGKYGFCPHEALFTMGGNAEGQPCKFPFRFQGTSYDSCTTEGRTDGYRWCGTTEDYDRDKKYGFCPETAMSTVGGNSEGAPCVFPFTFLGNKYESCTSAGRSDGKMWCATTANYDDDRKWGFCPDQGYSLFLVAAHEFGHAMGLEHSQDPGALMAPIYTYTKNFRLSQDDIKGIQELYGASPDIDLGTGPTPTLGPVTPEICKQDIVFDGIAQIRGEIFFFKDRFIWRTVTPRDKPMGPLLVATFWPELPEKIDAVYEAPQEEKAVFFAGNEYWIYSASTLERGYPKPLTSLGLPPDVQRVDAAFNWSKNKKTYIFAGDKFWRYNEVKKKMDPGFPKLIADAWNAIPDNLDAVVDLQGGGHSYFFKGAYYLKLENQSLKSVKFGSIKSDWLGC

What was measured:
[1] = molecular target: MMP-9 (Homo sapiens (Human), UniProt P14780); assay: Enzyme inhibition studies, MMP-9 catalytic domain
[2] = molecular target: MMP-2 (Homo sapiens (Human), UniProt P08253); assay: Enzyme inhibition studies, MMP-2; type: biochemical

## N=C(N)Nc1ccc(Oc2ccc(S(=O)(=O)CC3CS3)cc2)cc1 (stereo not shown)
[1]
  kon: 3820 ± 210 M⁻¹ s⁻¹
[1]; read-out: 10^3 koff
  koff: 0.355 ± 0.024 s⁻¹
[2]; Ki, slow-binding, Ki calculated from koff/kon
  Ki: 21 ± 2 nM

## CC(=O)NCc1ccc(Oc2ccc(S(=O)(=O)CC3CS3)cc2)cc1 (stereo not shown) [Compound 6, N-(4-(4-((Thiiran-2-ylmethyl)sulfonyl)phenoxy)benzyl)acetamide]
[2]
  fold more potent slow-binding inhibitor of MMP-2 than 4: 3 fold
  kon: 3910 ± 50 M⁻¹ s⁻¹
  residence time: 18.2 ± 0.4 min
[2]; read-out: 10^3 koff
  koff: 0.915 ± 0.019 s⁻¹
